Measurements published in ChEMBL document CHEMBL4823262, “Discovery of a Vitamin D Receptor-Silent Vitamin D Derivative That Impairs Sterol Regulatory Element-Binding Protein In Vivo” (J Med Chem, 2021).
Activity calls are given as the source filed them. No cut-off for these calls is given here.

Target: T1, Sterol regulatory element-binding protein cleavage-activating protein (Homo sapiens) (UniProt Q12770)
T1 sequence (whole entry): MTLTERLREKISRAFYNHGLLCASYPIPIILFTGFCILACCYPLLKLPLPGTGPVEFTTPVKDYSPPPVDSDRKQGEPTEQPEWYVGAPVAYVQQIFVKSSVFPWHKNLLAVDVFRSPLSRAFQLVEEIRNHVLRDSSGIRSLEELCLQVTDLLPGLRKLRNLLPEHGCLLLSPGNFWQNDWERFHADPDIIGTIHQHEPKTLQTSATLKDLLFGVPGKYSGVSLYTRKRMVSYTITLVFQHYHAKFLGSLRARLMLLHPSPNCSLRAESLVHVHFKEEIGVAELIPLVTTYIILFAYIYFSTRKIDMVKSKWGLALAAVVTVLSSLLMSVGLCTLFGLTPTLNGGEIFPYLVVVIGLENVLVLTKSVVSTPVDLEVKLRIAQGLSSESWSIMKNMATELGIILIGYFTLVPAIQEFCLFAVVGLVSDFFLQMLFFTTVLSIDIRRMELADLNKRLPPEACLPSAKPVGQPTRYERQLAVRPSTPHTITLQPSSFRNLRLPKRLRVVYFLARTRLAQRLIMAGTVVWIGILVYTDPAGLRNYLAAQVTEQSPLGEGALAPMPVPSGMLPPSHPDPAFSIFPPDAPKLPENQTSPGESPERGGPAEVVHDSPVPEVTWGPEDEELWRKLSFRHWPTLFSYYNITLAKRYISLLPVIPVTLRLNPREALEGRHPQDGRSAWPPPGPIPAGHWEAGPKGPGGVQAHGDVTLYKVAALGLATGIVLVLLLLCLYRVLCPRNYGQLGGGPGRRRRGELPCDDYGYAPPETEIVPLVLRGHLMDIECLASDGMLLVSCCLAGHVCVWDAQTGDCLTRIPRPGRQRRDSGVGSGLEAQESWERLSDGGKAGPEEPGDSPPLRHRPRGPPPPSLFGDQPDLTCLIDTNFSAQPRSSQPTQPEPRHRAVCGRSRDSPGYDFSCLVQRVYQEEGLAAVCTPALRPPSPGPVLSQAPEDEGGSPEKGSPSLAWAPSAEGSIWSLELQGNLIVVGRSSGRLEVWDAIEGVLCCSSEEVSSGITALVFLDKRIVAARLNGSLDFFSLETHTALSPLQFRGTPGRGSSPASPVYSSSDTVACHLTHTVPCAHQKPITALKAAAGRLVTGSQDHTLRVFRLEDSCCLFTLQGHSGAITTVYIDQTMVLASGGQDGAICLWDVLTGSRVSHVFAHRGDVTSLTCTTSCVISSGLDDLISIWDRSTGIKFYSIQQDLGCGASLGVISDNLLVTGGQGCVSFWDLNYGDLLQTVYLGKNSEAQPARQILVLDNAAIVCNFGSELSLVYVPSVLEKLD
Assay: Inhibition of FLAG-tagged SCAP (unknown origin) expressed in CHO-K1 cells assessed as reduction in SCAP protein level at 5 uM after 24 hrs by Western blotting analysis
Type: cell-based

inhibition: Active
Structure (SMILES): C[C@H](CCC(F)(F)C(C)(C)O)[C@H]1CC[C@H]2/C(=C/Cn3nnnc3-c3ccccc3)CCC[C@]12C
